Data published in PubChem BioAssay (Tox21).
Where “and” joins values, the source holds several entries; their conditions need not be identical. Equal entries are not always repeated. Only a part is listed here, and it is no random draw. Results filed as inconclusive are left out. Calls of active or inactive are those of the source. Unless noted, the call rests on the fitted dose curve; in most records, active means well fitted curve in the direction sought with a large enough effect in the repeat runs; inconclusive means weak or mixed curves; inactive means no such curve, though single readings can be large; an effect the other way counts as inactive or inconclusive.

Sequences of proteins named here, by UniProt entry; tags and fusion partners are left off.
UniProt Q03181, whole entry: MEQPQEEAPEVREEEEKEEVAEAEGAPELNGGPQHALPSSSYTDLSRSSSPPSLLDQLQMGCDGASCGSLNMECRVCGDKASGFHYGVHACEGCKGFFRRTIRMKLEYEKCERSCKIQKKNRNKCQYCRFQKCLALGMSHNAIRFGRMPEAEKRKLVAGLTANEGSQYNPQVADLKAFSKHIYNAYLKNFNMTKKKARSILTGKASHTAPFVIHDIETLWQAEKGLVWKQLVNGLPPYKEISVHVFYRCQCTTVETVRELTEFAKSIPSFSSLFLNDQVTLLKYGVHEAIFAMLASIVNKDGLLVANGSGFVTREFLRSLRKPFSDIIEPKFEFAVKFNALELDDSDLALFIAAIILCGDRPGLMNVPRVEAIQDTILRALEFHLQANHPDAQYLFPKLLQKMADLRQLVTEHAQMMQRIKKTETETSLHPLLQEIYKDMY
UniProt P11473, whole entry: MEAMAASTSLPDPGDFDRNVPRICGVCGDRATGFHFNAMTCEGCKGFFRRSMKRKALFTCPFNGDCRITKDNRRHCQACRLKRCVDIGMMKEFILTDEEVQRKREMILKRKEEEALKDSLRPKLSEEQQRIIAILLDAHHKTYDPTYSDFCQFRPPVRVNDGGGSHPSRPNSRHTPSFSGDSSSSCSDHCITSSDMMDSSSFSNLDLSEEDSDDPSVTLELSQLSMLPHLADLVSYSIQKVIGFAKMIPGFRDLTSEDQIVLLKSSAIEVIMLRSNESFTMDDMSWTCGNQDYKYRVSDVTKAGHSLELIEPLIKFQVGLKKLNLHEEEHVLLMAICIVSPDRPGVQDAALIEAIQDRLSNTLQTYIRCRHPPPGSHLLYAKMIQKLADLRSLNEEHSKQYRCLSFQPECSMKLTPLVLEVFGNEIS
UniProt Q96RI1, whole entry: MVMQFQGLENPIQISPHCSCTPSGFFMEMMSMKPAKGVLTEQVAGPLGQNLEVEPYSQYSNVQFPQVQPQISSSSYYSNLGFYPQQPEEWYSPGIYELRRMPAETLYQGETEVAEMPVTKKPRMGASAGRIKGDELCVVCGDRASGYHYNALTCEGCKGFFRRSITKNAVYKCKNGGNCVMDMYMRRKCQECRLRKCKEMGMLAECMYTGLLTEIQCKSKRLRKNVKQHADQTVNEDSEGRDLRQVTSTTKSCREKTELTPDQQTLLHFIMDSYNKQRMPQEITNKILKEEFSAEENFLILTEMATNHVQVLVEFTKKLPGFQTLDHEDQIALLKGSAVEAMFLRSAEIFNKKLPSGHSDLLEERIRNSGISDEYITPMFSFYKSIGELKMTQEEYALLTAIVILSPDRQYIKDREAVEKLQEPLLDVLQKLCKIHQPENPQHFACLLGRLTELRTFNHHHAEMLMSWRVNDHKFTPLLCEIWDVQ

Legend:
[1] = qHTS assay to identify small molecule antagonists of the farnesoid-X-receptor (FXR) signaling pathway - cell viability counter screen (AID 743221; active means well fitted cell-killing curve with a large enough effect in the repeat runs, not every such curve was filed as active; further: nearly all actives have a fitted effect of over 50% in size); conditions: FXR-bla HEK293T viability, CellTiter-Glo luminescence, 16 h; at 62.6 µM (top of the series) unless noted
In short: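 In GeneBLAzer FXR-UAS-bla HEK 293T cells stimulated with 50 uM chenodeoxycholic acid (final), compounds acted for 16 h at 37 C. Viability was assessed afterwards by CellTiter-Glo luminescence.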

[2] = qHTS assay to identify small molecule agonists of the vitamin D receptor (VDR) signaling pathway - cell viability counter screen (AID 743224); conditions: VDR-bla HEK293T viability, CellTiter-Glo luminescence, 16 h; at 62.6 µM (top of the series) unless noted; further: nearly all actives have a fitted effect of over 50% in size
Description: U.S. Tox21 Program National Center for Advancing Translational Sciences [NCATS] NIH Chemical Genomics Center [NCGC] U.S. Environmental Protection Agency [EPA] National Institutes of Environmental Health Sciences [NIEHS] National Toxicology Program [NTP] U.S. Food and Drug Administration [FDA] Tox21 Assay Overview: The vitamin D receptor (VDR), a member of nuclear hormone receptor superfamily, plays a critical role in calcium homeostasis and bone metabolism. It is also involved in cell differentiation and growth, and thrombogenicity. […] The cytotoxicity of the Tox21 compound library against the VDR-bla cell line was tested in parallel by measuring the cell viability using CellTiter-Glo assay (Promega, Madison, WI) in the same wells.
Tox21 Assay Protocol Summary: VDR-bla cells were dispensed at 2,000 cells/6 uL/well into black wall/clear-bottom 1536-well plates using a Multidrop Combi (Thermo Fisher Scientific, Waltham, MA) dispenser. After the assay plates were incubated at a 37C and 5% CO2 for 4 h, 23 nL of compounds dissolved in DMSO, positive controls or DMSO only was transferred to the assay plate by a Pintool station (Kalypsys, San Diego, CA). The plates were incubated at 37C and 5% CO2 for 16 h. After 1 uL of LiveBLAzerTM B/G FRET substrate was added using a Bioraptr Flying Reagent Dispenser (FRD) workstation (Beckman Coulter, Indianapolis, IN, USA), the plates were incubated at room temperature for 2 h, and fluorescence intensity was measured by an Envision plate reader (PerkinElmer, Shelton, CT). For cell viability readout that measures cytotoxicity, 3 ul/well of CellTiter-Glo reagent was added into the assay plates using a FRD. After 30 min incubation at room temperature, the luminescence intensity in the plates was measured using a ViewLux (PerkinElmer) plate reader.

[3] = qHTS assay to identify small molecule antagonists of the peroxisome proliferator-activated receptor delta (PPARd) signaling pathway - cell viability counter screen (AID 743213); conditions: PPARd-bla HEK293H viability, CellTiter-Glo luminescence, 17 h; at 80.4 µM (top of the series) unless noted; further: nearly all actives have a fitted effect of over 50% in size
Description: U.S. Tox21 Program National Center for Advancing Translational Sciences [NCATS] NIH Chemical Genomics Center [NCGC] U.S. Environmental Protection Agency [EPA] National Institutes of Environmental Health Sciences [NIEHS] National Toxicology Program [NTP] U.S. Food and Drug Administration [FDA] Tox21 Assay Overview: The peroxisome proliferator-activated receptors (PPARs) are lipid-activated transcription factors of the nuclear receptor superfamily with three distinct subtypes namely PPAR alpha, PPAR delta (PPARd) and PPAR gamma. All these subtypes heterodimerizes with Retinoid X receptor (RXR) and have different physiological functions. […] To identify the compounds that inhibit PPAR-delta signaling, GeneBLAzer PPAR delta UAS-bla HEK293H cell line (Invitrogen, Carlsbad, CA, USA) containing a beta-lactamase reporter gene under the control of an Upstream Activator Sequence (UAS) was used to screen the Tox21 compound library. The cytotoxicity of the Tox21 compound library against the PPARd-bla cell line was tested in parallel by measuring the cell viability using CellTiter-Glo assay (Promega, Madison, WI) in the same wells.
Tox21 Assay Protocol Summary: PPARd-bla cells were dispensed at 3000 cells/5uL/well in 1536-well black wall/clear bottom plates using a Multidrop Combi (Thermo Fisher Scientific, Waltham, MA) dispenser. After the assay plates were incubated at 37 C and 5% CO2 for 5 h, 23 nL of compounds dissolved in DMSO, positive controls or DMSO only was transferred to the assay plate by a Pintool station (Kalypsys, San Diego, CA), followed by addition of 1ul L165041 (300 nM, final concentration in the wells). […] The assay plates were incubated at room temperature for 2 h and fluorescence intensity was measured by an Envision plate reader (PerkinElmer, Shelton, CT). For cell viability readout that measures cytotoxicity, 3 ul/well of CellTiter-Glo reagent was added into the assay plates using a Bioraptr FRD. After 30 min incubation at room temperature, the luminescence intensity in the plates was measured using a ViewLux plate reader (PerkinElmer).

[4] = target: Peroxisome proliferator-activated receptor delta (Homo sapiens) (UniProt Q03181); test: qHTS assay to identify small molecule antagonists of the peroxisome proliferator-activated receptor delta (PPARd) signaling pathway (AID 743215; active means well fitted inhibition curve with a large enough effect in the signal ratio in the repeat runs, not every such curve was filed as active; the % refers to the signal ratio;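 further: cells stimulated with agonist L165041 at 300 nM final during compound exposure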); conditions: HEK293H PPARd-UAS-bla, beta-lactamase FRET ratio, antagonist, 17 h; at 80.4 µM (top of the series)
In short: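 PPARd-bla HEK293H cells (UAS-bla reporter) preincubated 5 h, then given compound plus 300 nM final L165041 agonist for 17 h at 37 C. Beta-lactamase activity read by LiveBLAzer B/G FRET substrate fluorescence after 2 h at room temperature.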

[5] = qHTS assay to identify small molecule antagonists of the vitamin D receptor (VDR) signaling pathway - cell viability counter screen (AID 743225); conditions: VDR-bla HEK293T viability, CellTiter-Glo luminescence, 16 h; at 61 µM (top of the series); further: nearly all actives have a fitted effect of over 50% in size
In short: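 Luminescent cell viability (CellTiter-Glo) in VDR-bla HEK 293T cells after 16 h compound exposure at 37C in the presence of 3 nM final 1-alpha,25-dihydroxy vitamin D3.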

[6] = qHTS assay to identify small molecule agonists of the farnesoid-X-receptor (FXR) signaling pathway - cell viability counter screen (AID 743218); conditions: FXR-bla HEK293T viability, CellTiter-Glo luminescence, 16 h; at 81.1 µM (top of the series) unless noted; further: nearly all actives have a fitted effect of over 45% in size
In short: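 FXR-UAS-bla HEK 293T cells exposed to compounds for 16 h at 37C. Cytotoxicity read in the same wells by CellTiter-Glo luminescence after 30 min at room temperature, following the beta-lactamase FRET read.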

[7] = target: Vitamin D3 receptor (Homo sapiens) (UniProt P11473); test: qHTS assay to identify small molecule agonists of the vitamin D receptor (VDR) signaling pathway (AID 743222; calls by dose curve); conditions: HEK293T VDR-UAS-bla, beta-lactamase FRET ratio, 16 h; at 81.1 µM (top of the series) unless noted
In short: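 VDR-bla cells plated 4 h at 37 C, then exposed to compounds for 16 h at 37 C. Beta-lactamase reporter activity measured by fluorescence after 2 h room-temperature loading with LiveBLAzer B/G FRET substrate.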

[8] = target: Vitamin D3 receptor (Homo sapiens) (UniProt P11473); test: qHTS assay to identify small molecule antagonists of the vitamin D receptor (VDR) signaling pathway (AID 743223; active means well fitted inhibition curve with a large enough effect in the signal ratio in the repeat runs, not every such curve was filed as active; the % refers to the signal ratio); conditions: VDR-UAS-bla HEK293T, beta-lactamase FRET ratio, 16 h; at 61 µM (top of the series)
In short: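 Agonist 1alpha,25-dihydroxyvitamin D3 (3 nM in well) was added with each compound to VDR-bla cells preincubated 4 h. Cells stood 16 h at 37C, then FRET substrate 2 h at room temperature; fluorescence intensity recorded.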

[9] = target: Bile acid receptor (Homo sapiens) (UniProt Q96RI1); test: qHTS assay to identify small molecule antagonists of the farnesoid-X-receptor (FXR) signaling pathway (AID 743217; active means well fitted inhibition curve with a large enough effect in the signal ratio in the repeat runs, not every such curve was filed as active; the % refers to the signal ratio); conditions: HEK293T FXR-UAS-bla, beta-lactamase ratio, CDCA-stimulated, 16 h; at 81.1 µM (top of the series)
In short: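 FXR-UAS-bla HEK 293T cells (beta-lactamase reporter) given compound plus chenodeoxycholic acid (50 uM final), 16 h at 37C. LiveBLAzer B/G FRET substrate added for 2 h at room temperature; fluorescence read.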

[10] = target: Bile acid receptor (Homo sapiens) (UniProt Q96RI1); test: qHTS assay to identify small molecule agonists of the farnesoid-X-receptor (FXR) signaling pathway (AID 743220; active means well fitted activation curve with a large enough effect in the signal ratio in the repeat runs, not every such curve was filed as active; the % refers to the signal ratio); conditions: HEK293T FXR-UAS-bla, beta-lactamase FRET ratio, 16 h; at 81.1 µM (top of the series)
On the % scale 0 is the no-effect control and ±100 the full control effect.

CN(CCCl)CCCl
inactive: activity change, negative = cytotoxicity [1] -11.6% and -9.25% | activity change, negative = cytotoxicity [2] -18.1% and 1.01%

CCC(=O)N(c1ccccc1)C1(COC)CCN(CCc2cccs2)CC1
inactive: viability change, negative = cytotoxic [3] -5.47% | ratio activity, negative = inhibition [4] 2.82% | activity change, negative = cytotoxicity [1] -7.83% [at 81.1 µM] | activity change, negative = cytotoxicity [2] -1.93% [at 81.1 µM] | viability change, negative = cytotoxic [5] -6.85%

O=[N+]([O-])C(Cl)(Cl)Cl
inactive: viability change, negative = cytotoxic [3] 8.8% [at 62 µM] | viability change, negative = cytotoxic [6] -0.846% [at 62.6 µM] | activity change, negative = cytotoxicity [1] -1.36% | activation [7] 6.41% [at 63.5 µM] | activity change, negative = inhibition [8] 1.56% | activity change, negative = cytotoxicity [2] 2.06% | viability change, negative = cytotoxic [5] -0.63%

CCC(=O)N(c1ccccc1)C1(COC)CCN(CCn2nnn(CC)c2=O)CC1
inactive: viability change, negative = cytotoxic [3] -2.77% | ratio activity, negative = inhibition [4] 0.159% | activity change, negative = inhibition [9] -2.19% | viability change, negative = cytotoxic [6] -9.59% | activation [10] -4.82% | activity change, negative = cytotoxicity [1] -1.26% [at 81.1 µM] | activation [7] -6.99% | activity change, negative = inhibition [8] 6.28% | activity change, negative = cytotoxicity [2] -7.99% [at 81.1 µM] | viability change, negative = cytotoxic [5] -13.8%
